Measurements as given in article PMC5177901 (Scientific Reports, 2016).

Target: the molecule itself
Experiment: dynamic light scattering; hTH1 4 uM subunit without liposomes, 10 mM Na-Hepes, 150 mM NaCl, pH 7.0, 37 °C; intensity and volume size distributions

B1: Full-length human tyrosine hydroxylase type 1 (enzyme)
chain: not shown
notes: tyrosine hydroxylase type 1 (hTH1), human, UniProt P07101-3; 497 amino acids per subunit, homotetramer; also called hTH1; isoform 1 of human TH; source: E. coli BL21-CodonPlus, expressed as (His)6-ZZ-TH, tag cut with His-tagged TEV, purified (TALON column); not shown: His6, N-terminal, cleaved; ZZ, N-terminal, cleaved
- stoichiometry N: 4
